Among the data in ChEMBL document CHEMBL6153072, “Metabolically Stable Adenylation Inhibitors of Biotin Protein Ligase as Antibacterial Agents” (J Med Chem, 2025) are Kd values, retold here.

The target of this test is T1, Biotin--[acetyl-CoA-carboxylase] ligase (Mycobacterium tuberculosis (strain ATCC 25618 / H37Rv), UniProt I6YFP0).
T1 sequence (I6YFP0 whole entry): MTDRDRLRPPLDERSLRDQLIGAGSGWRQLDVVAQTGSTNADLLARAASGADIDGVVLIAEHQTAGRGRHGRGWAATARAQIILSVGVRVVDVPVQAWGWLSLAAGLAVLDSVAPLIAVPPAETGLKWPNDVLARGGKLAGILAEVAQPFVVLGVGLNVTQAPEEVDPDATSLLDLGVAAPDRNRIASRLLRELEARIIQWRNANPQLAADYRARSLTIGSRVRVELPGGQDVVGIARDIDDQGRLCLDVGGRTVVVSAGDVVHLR
Nature of the test: Binding affinity to Mycobacterium tuberculosis BPL assessed as dissociation constant by isothermal titration calorimetry. Background: In ITC the heat of successive injections is recorded.

As usually defined, the Kd is the free concentration of one partner at which half of the binding sites on the other are occupied at equilibrium, for simple one-to-one binding. Turning to `Nc1ncnc2c1ncn2[C@@H]1O[C@H](CNS(=O)(=O)[N-]C(=O)NCCC[C@@H]2SC[C@@H]3NC(=O)N[C@@H]32)[C@@H](O)[C@H]1O.[Na+]`, the Kd amounted to 7 nM.
